# Data reported in PubChem BioAssay (EPA / NIEHS).
# The chains behind the UniProt entries cited, without tags or fusion partners.
# UniProt P04637, whole entry, looked up: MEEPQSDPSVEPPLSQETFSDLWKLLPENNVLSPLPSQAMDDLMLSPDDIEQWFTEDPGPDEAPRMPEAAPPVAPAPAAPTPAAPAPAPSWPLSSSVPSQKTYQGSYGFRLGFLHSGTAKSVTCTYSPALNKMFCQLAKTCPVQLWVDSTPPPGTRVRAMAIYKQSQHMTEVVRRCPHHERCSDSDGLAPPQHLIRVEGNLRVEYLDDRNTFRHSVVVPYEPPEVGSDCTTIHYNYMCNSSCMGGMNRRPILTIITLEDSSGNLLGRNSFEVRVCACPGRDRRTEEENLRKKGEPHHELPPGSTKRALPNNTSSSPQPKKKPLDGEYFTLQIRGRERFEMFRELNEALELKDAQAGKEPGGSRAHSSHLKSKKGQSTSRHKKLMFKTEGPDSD
# Several values for one entry are separate records, joined by “and”; a condition that tells them apart may be missing. Identical values can stand only once. This is a selection; strong and weak results do not stand in their true shares. More than one record can exist for a structure, and the calls need not agree. Activity calls are given as the source filed them. The calls were made as follows: active = hit-call score of the fitted dose curve at least 0.9, where 1 is the maximum; inactive = score below 0.9.
# Target: Cellular tumor antigen p53 (Homo sapiens) (UniProt P04637)
# Experiment: ATG_p53_CIS: Attagene CIS-FACTORIAL HepG2 Assay for human p53 Transcription Factor (AID 2282994)
# Conditions: HepG2 p53 cis-element reporter, Attagene mRNA; actives raise or lower the signal
# Outline: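 HepG2 cells transiently transfected with cis-regulated multiple reporter transcription units, dosed 24 h. Reporter mRNA measured by RT-PCR, 6-FAM primer extension, HpaI digestion and capillary electrophoresis; bidirectional fit relative to DMSO.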
row,SMILES,outcome
1,Cc1cc([N+](=O)[O-])cc([N+](=O)[O-])c1O,inactive
2,O=[N+]([O-])c1ccc([N+](=O)[O-])cc1,inactive
3,CCCCOP(OCCCC)OCCCC,inactive
4,O=P(Cl)(Oc1ccccc1)Oc1ccccc1,inactive
5,ClP(Cl)c1ccccc1,inactive
6,O=C1C2CC=CCC2C(=O)N1SC(Cl)(Cl)C(Cl)Cl (stereo unspecified),inactive
7,N#CSc1ccc([N+](=O)[O-])cc1[N+](=O)[O-],inactive
8,O=[P+](Oc1ccccc1)Oc1ccccc1,inactive
9,CCCCC(CC)CO[P+](=O)OCC(CC)CCCC (stereo unspecified),inactive
10,CC(C)CCCCCCCOP(OCCCCCCCC(C)C)Oc1ccccc1,inactive
11,O=C(Cl)Oc1ccccc1,inactive
12,CN(C(=O)Cc1cccc2occc12)[C@H]1CC[C@@]2(CCCO2)C[C@@H]1N1CCCC1,inactive
13,O=C(Cl)OCCOC(=O)Cl,inactive
14,CCCCO[P+](=O)OCCCC,inactive

# Read-out: not listed separately
# Experiment: BSK_3C_TissueFactor: BioMAP Diversity Plus: 3C Assay for Tissue Factor Biomarker Activity (AID 2282997)
# Conditions: BioMAP 3C HUVEC, tissue factor biomarker readout; actives raise or lower the signal
# Outline: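 Values derive from bidirectional curve fitting against DMSO of Tissue Factor ELISA signals, taken 24 h after dosing primary human umbilical vein endothelial cells.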
SMILES,outcome,AC50
Cc1cc([N+](=O)[O-])cc([N+](=O)[O-])c1O,inactive,–
O=[N+]([O-])c1ccc([N+](=O)[O-])cc1,inactive,–
O=C1C2CC=CCC2C(=O)N1SC(Cl)(Cl)C(Cl)Cl (stereo unspecified),–,active: 9.17 µM
CC(C)OP(=S)(OC(C)C)SCCNS(=O)(=O)c1ccccc1,inactive,active: 26.6 µM and active: 34.2 µM
O=C(Cl)Oc1ccccc1,inactive,–
CN(C(=O)Cc1cccc2occc12)[C@H]1CC[C@@]2(CCCO2)C[C@@H]1N1CCCC1,inactive,–
